From patent US11439670B2, “Akkermansia muciniphila EB-AMDK27 strain and use thereof” (ENTEROBIOME INC., priority 2019, dated 2022) come the findings set out here.

For this assay, the system named is Bacteroides thetiotaomicron ATCC 29741. The assay can be described thus: Antimicrobial susceptibility, MIC by broth microdilution (CLSI), QC strain. Conditions: ATCC29741, read-out: MIC, QC ATCC 29741. On the technique in general: Broth dilution looks for growth in wells or tubes with falling amounts of substance.

≈ marks a conversion by molar mass, not a printed value.

As usually defined, the MIC is the smallest concentration in the dilution series that meets the test's criterion for growth inhibition. As to `CCC[C@@H]1C[C@@H](C(=O)N[C@@H]([C@H]2O[C@H](SC)[C@H](O)[C@@H](O)[C@H]2O)[C@H](C)Cl)N(C)C1` [CLI, Clindamycin], the MIC turned out to be 4 µg/mL (≈ 9.41 µM).
